Laboratory results as given in patent publication US20120270905A1, “FLUORINATED 2,6-DIALKYL-3,5-DICYANO-4-(1H-INDAZOL-5-YL)-1,4-DIHYDROPYRIDINES AND METHODS OF USE THEREOF” (BAYER PHARMA AKTIENGESELLSCHAFT, priority 2009, published 2012).

Chains of the proteins cited; added tags and fusions are not shown. Residues count along the entry.
UniProt P08581, 25-1390 limits assumed: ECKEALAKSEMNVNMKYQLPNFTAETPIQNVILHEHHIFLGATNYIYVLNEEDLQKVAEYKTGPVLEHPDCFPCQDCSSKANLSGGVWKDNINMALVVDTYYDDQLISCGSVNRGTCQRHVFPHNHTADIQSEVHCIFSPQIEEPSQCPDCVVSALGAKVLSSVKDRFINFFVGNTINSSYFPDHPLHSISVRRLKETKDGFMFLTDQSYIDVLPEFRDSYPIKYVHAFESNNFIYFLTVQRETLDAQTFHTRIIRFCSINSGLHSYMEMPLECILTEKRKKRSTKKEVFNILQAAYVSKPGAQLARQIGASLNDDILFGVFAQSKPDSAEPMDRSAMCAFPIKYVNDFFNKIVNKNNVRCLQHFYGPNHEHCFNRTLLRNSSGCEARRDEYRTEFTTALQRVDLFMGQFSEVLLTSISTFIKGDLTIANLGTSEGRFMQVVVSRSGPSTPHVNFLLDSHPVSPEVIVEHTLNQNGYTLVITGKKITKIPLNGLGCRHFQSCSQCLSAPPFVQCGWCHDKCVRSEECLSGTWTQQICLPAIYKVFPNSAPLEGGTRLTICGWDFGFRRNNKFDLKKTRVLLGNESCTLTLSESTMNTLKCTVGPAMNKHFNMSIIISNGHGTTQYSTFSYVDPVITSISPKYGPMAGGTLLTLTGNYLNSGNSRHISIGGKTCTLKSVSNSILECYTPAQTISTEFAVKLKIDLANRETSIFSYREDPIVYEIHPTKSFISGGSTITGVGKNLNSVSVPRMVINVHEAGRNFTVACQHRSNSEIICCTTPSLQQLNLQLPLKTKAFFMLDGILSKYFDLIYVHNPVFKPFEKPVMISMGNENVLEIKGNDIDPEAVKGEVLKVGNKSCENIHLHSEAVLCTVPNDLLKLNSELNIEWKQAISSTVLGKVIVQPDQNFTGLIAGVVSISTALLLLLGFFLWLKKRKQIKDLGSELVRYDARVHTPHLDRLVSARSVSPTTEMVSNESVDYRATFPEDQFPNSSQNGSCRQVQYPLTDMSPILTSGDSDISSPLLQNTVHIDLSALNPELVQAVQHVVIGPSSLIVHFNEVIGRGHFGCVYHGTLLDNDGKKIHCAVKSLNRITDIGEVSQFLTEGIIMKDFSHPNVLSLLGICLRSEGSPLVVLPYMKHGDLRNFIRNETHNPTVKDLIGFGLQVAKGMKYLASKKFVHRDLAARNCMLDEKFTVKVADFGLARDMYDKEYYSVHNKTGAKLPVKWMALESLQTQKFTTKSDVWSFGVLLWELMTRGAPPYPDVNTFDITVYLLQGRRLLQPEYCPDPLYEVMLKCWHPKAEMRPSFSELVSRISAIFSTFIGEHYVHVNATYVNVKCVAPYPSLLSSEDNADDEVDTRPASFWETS
UniProt P08581, 960-1390 limits assumed: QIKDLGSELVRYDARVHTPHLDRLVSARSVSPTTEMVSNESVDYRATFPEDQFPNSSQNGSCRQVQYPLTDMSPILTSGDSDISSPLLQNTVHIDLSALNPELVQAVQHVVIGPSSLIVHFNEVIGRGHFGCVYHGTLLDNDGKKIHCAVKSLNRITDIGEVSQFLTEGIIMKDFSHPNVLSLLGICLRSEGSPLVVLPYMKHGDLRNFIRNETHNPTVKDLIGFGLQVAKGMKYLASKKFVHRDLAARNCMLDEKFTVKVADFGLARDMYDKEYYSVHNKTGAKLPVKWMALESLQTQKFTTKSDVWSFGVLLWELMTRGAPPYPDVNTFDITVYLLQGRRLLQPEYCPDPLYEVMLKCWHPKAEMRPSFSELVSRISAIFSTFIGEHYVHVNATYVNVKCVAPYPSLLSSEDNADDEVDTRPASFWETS

Columns and labels:
[1] = target: recombinant kinase domain of the human c-Met (amino acids 960-1390) (Homo sapiens, UniProt P08581); assay: c-Met receptor tyrosine kinase homogeneous time-resolved fluorescence assay (alternative format); conditions: HTRF format; ATP 10 μM, 30 min at 22° C.
Description: c-Met Receptor Tyrosine Kinase Homogeneous Time-Resolved Fluorescence Assay (Alternative Format):
The N-terminally His6-tagged recombinant kinase domain of the human c-Met (amino acids 960-1390), expressed in insect cells (SF21) and purified by Ni-NTA affinity chromatography and consecutive size exclusion chromatography (Superdex 200), is used. Alternatively, commercially available c-Met (Millipore) can be used. As substrate for the kinase reaction, the biotinylated poly-Glu,Tyr (4:1) copolymer (#61GT0BLC, Cis Biointernational, Marcoule, France) is used.
For the assay, 50 nL of a 100-fold concentrated solution of the test compound in DMSO is pipetted into a black low-volume 384-well microtiter plate (Greiner Bio-One, Frickenhausen, Germany). […]
The resulting mixture is incubated for 1 h at 22° C. to allow the binding of the biotinylated phosphorylated peptide to the streptavidine-XLent and the PT66-Eu-chelate. Subsequently, the amount of phosphorylated substrate is evaluated by measurement of the resonance energy transfer from the PT66-Eu-chelate to the streptavidine-XLent. Therefore, the fluorescence emissions at 620 nm and 665 nm after excitation at 350 nm are measured in an HTRF reader, e.g. Rubystar (BMG Lab-technologies, Offenburg, Germany) or Viewlux (Perkin-Elmer). […]

[2] = target: Recombinant human c-Met protein (Homo sapiens, UniProt P08581); assay: c-Met receptor tyrosine kinase activity assay (NADH read-out); conditions: c-Met 30 nM, ATP 30 μM, 100 min at 32° C.
Experimental: c-Met Receptor Tyrosine Kinase Activity Assay (NADH Read-Out):
Recombinant human c-Met protein (Invitrogen, Carlsbad, Calif., USA) is used. As substrate for the kinase reaction the peptide KKKSPGEYVNIEFG (JPT, Germany) is used. For the assay, 1 μL of a 51-fold concentrated solution of the test compound in DMSO is pipetted into a white 384-well microtiter plate (Greiner Bio-One, Frickenhausen, Germany). 25 μL of a solution of c-Met (final concentration 30 nM) and pyruvate kinase/lactate dehydrogenase (Roche Diagnostics, Mannheim, Germany; final concentration 8 mg/L) in assay buffer [3-(N-morpholino)propanesulfonic acid (MOPS), 50 mM, pH 7; MgCl2, 10 mM; bovine serum albumin (BSA), 0.01%; Triton X 100, 0.01%; DTT, 2 mM] are added, and the mixture is incubated for 5 min at room temperature. […]
Subsequently, the amount of phosphorylated substrate is evaluated by measurement of the decrease of NADH fluorescence. Therefore, the fluorescence emissions at 465 nm after excitation at 340 nm is measured in a fluorescence reader, e.g. Tecan Ultra (Tecan, Männedorf, Switzerland). […]

[3] = test system: Human Caco-2 cells; assay: Caco-2 permeability assay; conditions: apical to basolateral; test concentration 2 μM; 2 h at 37° C.
Description: Caco-2 Permeability Assay:
The in vitro permeation of a test compound across a Caco-2 cell monolayer is a well-established assay system to predict the permeability from the gastro-intestinal tract [cf. P. Artursson and J. Karlsson: Correlation between oral drug absorption in humans and apparent drug permeability coefficients in human intestinal epithelial (Caco-2) cells, Biochem. Biophys. 175 (3), 880-885 (1991)]. The permeability of the compounds of the present invention in such Caco-2 cells was deter-mined as described below:
Human Caco-2 cells (ACC No. 169, DSMZ, German Collection of Microorganisms and Cell Cultures, Braunschweig, Germany) are seeded on 24-well insert plates and are allowed to grow for 14-16 days. For permeability studies, the test compounds are dissolved in DMSO and diluted to the final test concentration of 2 μM with transport buffer [Hanks' Buffered Salt Solution, Gibco/Invitrogen, further supplemented with glucose (final concentration 19.9 mM) and HEPES (final concentration 9.8 mM)]. […] Samples are analyzed by LC-MS/MS, and the apparent permeability coefficients are calculated. Lucifer Yellow permeability is assayed for each cell monolayer to ensure cell monolayer integrity, and the permeability of Atenolol (low permeability marker) and Sulfasalazine (marker for active excretion) is determined for each batch as quality control. […]

- IC50 [1]: 2 nM
- IC50 [2]: 8 nM
- Caco-2 permeability PappA-B [3]: 12.4 ×10⁻⁶ cm/s
SMILES: CC1=C(C#N)C(c2ccc3[nH]ncc3c2)C(C#N)=C(C)N1
